Test results published in patent publication US9656953B2, “Inhibition of cell proliferation” (University of South Florida, priority 2005, dated 2017).

Chains of the proteins cited; added tags and fusions are not shown. Lines headed by an entry give the natural chain unless they say otherwise; changes in a name come on top.
UniProt P06400: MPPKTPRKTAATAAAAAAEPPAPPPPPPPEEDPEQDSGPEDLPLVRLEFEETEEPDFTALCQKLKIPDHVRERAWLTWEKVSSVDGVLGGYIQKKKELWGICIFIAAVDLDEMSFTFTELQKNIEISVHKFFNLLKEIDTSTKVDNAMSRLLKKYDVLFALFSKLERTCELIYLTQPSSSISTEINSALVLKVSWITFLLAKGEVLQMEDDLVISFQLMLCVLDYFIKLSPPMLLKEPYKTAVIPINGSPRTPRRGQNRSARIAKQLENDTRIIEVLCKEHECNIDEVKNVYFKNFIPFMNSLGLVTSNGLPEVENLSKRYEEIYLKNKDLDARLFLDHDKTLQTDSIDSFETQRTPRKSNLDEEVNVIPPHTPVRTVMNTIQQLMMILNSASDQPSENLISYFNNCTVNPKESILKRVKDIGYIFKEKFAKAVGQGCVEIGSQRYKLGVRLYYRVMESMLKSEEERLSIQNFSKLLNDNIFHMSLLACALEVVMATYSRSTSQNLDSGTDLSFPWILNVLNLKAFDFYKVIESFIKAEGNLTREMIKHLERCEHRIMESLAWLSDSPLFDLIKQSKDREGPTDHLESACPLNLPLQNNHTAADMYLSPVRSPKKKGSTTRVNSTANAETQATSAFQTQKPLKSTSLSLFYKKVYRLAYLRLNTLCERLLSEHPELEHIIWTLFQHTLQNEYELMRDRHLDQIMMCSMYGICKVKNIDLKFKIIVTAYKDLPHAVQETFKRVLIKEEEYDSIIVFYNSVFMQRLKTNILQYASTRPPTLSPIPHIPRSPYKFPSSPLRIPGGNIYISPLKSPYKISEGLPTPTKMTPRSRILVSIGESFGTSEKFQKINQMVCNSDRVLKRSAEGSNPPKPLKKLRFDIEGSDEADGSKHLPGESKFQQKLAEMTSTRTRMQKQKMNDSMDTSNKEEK
UniProt Q01094: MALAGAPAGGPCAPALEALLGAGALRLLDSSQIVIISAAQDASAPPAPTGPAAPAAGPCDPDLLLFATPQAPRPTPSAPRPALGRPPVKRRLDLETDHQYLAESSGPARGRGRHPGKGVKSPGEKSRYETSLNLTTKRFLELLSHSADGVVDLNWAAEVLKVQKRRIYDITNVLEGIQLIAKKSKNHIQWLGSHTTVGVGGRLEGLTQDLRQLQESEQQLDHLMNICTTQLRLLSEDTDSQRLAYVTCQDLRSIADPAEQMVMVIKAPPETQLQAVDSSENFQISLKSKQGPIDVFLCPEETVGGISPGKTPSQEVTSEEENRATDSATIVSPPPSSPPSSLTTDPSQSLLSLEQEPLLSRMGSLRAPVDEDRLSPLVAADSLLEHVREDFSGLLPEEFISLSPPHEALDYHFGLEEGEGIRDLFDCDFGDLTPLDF
UniProt P35232: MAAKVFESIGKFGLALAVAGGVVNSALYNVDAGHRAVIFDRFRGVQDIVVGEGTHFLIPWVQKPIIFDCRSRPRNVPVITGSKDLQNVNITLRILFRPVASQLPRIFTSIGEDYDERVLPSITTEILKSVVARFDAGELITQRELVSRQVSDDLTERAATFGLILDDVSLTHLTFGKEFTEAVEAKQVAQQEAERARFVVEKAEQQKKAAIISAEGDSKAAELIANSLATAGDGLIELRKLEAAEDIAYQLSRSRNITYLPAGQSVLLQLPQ
UniProt Q13547, whole entry: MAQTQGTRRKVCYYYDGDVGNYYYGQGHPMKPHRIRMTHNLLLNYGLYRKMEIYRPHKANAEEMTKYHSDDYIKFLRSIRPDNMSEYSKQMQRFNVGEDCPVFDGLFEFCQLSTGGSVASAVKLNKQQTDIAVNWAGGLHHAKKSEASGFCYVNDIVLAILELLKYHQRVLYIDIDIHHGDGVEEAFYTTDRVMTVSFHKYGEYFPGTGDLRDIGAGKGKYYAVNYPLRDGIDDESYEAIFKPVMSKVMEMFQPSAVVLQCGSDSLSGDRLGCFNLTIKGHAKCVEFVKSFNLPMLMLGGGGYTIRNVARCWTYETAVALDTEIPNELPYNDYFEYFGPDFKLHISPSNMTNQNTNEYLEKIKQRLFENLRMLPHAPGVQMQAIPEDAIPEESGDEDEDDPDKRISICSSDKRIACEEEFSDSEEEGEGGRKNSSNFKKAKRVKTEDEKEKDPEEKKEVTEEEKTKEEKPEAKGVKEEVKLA

Experiments:
[1] = target: T1, Rb-E2F1 (Homo sapiens, UniProt P06400+Q01094); assay: GST ELISA, Rb-E2F1 binding; settings: 20 μM
T1 construct: made in house
Text: In vitro library screening assays. […] Absorbance was read at 490 nanometers (nm).

[2] = target: Rb/prohibitin (Homo sapiens, UniProt P06400+P35232); settings: ELISA, 20 μM
Protocol: (§1) In vitro library screening assays. Enzyme Linked ImmunoSorbent Assay (ELISA) 96-well plates were coated with 1 μg/mL of a glutathione S-transferase (GST) Raf-1 (1-149aa) overnight at 4° C. Subsequently the plates were blocked and GST Rb at 20 μg/mL was rotated at room temperature (RT) for 30 minutes in the presence or absence of the compounds at 20 micromolar (μM). GST-Rb +/− compounds were then added to the plate and incubated for 90 minutes (min) at 37° C. The amount of Rb bound to Raf-1 was detected by Rb polyclonal antibody (Santa Cruz Biotechnology, Santa Cruz, Calif.) 1:1000 incubated for 60 min at 37° C. Donkey-anti-rabbit-IgG-HRP (1:10,000) was added to the plate and incubated at 37° C. for 60 minutes. The color was developed with orthophenylenediamine (Sigma, St. Louis, Mo.) and the reaction was terminated with 3 molar (M) H2SO4. Absorbance was read at 490 nanometers (nm). To determine disruption of Rb to E2F1, Phb, or HDAC1 the above protocol was used with the exception of coating GST Rb on the ELISA plate and adding the drugs in the presence or absence of GST E2F1, Phb, or HDAC1. […] Prohibitin monoclonal antibody was used at 1:1000 to detect the amount of Rb bound to Prohibitin. For disruption of MEK-Raf-1 binding ELISAs, Raf-1 1 microgram/milliliter (μg/mL) was coated on the plate and GST-MEK (20 μg/mL) was incubated +/− the compounds for 30 minutes at room temperature. Mek1 polyclonal antibody was used at 1:1000 to detect the binding of Raf-1 to Mek1. The IC50 concentrations for the Rb:Raf-1 inhibitors were determined by plotting with Origin 7.5 software (Origin, Northampton, Mass.).

[3] = target: Raf-1/Mek (Homo sapiens, UniProt P04049+Q02750); settings: ELISA, 20 μM
Protocol: as §1

[4] = target: Rb/HDAC1 (Homo sapiens, UniProt P06400+Q13547); settings: ELISA, 20 μM
Protocol: as §1

Compound: N=C(N)SCc1ccc(Cl)cc1Cl [(1), 2,4-dichlorobenzyl carbamimidothioate]
- inhibition of Rb-E2F1 binding / selectivity in words [1]: selective for inhibiting Rb:Raf-1 and not Rb-E2F1 binding

Compound: Cl.N=C(N)SCc1ccc(Cl)cc1Cl [Compound 3a]
- inhibition of Rb/prohibitin binding / selectivity in words [2]: without targeting the binding partners of Rb and Raf-1
- inhibition of Raf-1/Mek association / selectivity in words [3]: without targeting the binding partners of Rb and Raf-1
- inhibition of Rb/HDAC1 binding / selectivity in words [4]: without targeting the binding partners of Rb and Raf-1
- inhibition of Rb-E2F1 binding / selectivity in words [1]: without targeting the binding partners of Rb and Raf-1
